## scFv variants of Ab-14 (light chain) against a SARS-CoV-2 spike peptide

Values reported by Li et al. 2023, doi:10.1038/s41467-023-39022-2 (FLAb copy).

All variants were tested on one target, the spike HR2 peptide PDVDLGDISGINAS (SARS-CoV-2).

Ab-14 is the parent antibody, in scFv form: VH, then three GGGGS repeats, then VL. The heavy chain is unchanged in all variants.
VH: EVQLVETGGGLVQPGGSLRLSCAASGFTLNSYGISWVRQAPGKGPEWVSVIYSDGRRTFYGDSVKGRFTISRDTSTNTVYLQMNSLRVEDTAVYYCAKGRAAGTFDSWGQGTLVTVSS
VL: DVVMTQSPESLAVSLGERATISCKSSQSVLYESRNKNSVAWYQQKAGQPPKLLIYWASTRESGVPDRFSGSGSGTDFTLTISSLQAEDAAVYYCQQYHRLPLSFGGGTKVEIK

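The starting antibody came from a phage panning campaign against this peptide. These sequences belong to a second round, designed from the earlier measurements on random variants of the parent. Several design methods are mixed in this list. Affinity was read by AlphaSeq, a pooled yeast mating assay with surface-displayed partners. After mating in shaken culture at 30 °C for 16 h, diploids were selected and their barcode pairs sequenced. Each replicate has its own calibration line, from reference interactions of the BCL2 family. Mating was done six times.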

Positions count from residue 1 of the parent VL; S25V puts V in place of S. Variants here have at most six changes. Values are log10 of the apparent Kd in nM; lower means stronger binding. A mean of the replicates is given; it leaves out those without a signal. Where no diploid with the target was found in any replicate, the entry reads "nd": below detection, most likely a poor binder, though not proof of it.

* S25V/Y31F/K36D/V39I/Q96A = 1.61 (5 of 6 replicates; controls 1 of 18)
* S25M/V29A/Y31M/K36G/W56N/T59K = -0.18 (6 of 6 replicates; controls 1 of 18)
* Q27I/V29Y/W56Q = -0.07 (6 of 6 replicates; controls 0 of 18)
* S25L/V29W/S38N/W56N/T59K = -0.54 (6 of 6 replicates; controls 1 of 18)
* S25F/V29W/W56N/E61M = -0.27 (6 of 6 replicates; controls 2 of 18)
* S25Y/S26Y/Q27P/V29H/W56Q/R99L = -0.12 (6 of 6 replicates; controls 0 of 18)
* S25P/V29F/W56G/P101T/L102K = nd (0 of 6 replicates; controls 0 of 18)
* S25K/S26Q/W56G/S103Y = 2.47 (6 of 6 replicates; controls 0 of 18)
* K24H/S25L/W56N/S103N = 0.00 (6 of 6 replicates; controls 0 of 18)
* S25V/Q27P/W56D = -0.47 (6 of 6 replicates; controls 3 of 18)
* Q27I/V29Y/Y31I/W56E = -0.28 (6 of 6 replicates; controls 0 of 18)
* S26G/S28E/W56G/T59Q = -0.04 (6 of 6 replicates; controls 4 of 18)
* N35L/W56N/A57G = 0.76 (6 of 6 replicates; controls 2 of 18)
* S33N/R34E/N37S = 0.93 (6 of 6 replicates; controls 1 of 18)
* S25F/V29W/N35T/W56N/R99Q = 0.06 (6 of 6 replicates; controls 0 of 18)
* S25L/S26P/V29S/S38Q/W56S/S62M = 0.68 (6 of 6 replicates; controls 0 of 18)
* S25L/S26Q/V29Q/N35M/W56N = -0.09 (6 of 6 replicates; controls 0 of 18)
* S25D/Y31G/R34F/S38A/S62A/S103D = nd (0 of 6 replicates; controls 0 of 18)
* S25L/S38N/W56N = -0.07 (6 of 6 replicates; controls 0 of 18)
* L30P/Y31E/K36E = 1.57 (3 of 6 replicates; controls 0 of 18)
* S25V/S26Q/W56N/E61S = -0.11 (6 of 6 replicates; controls 1 of 18)
* Q27I/S28G/V29Y/Y31E/W56E = 0.12 (6 of 6 replicates; controls 1 of 18)
* Q27I/V29D/R34E/W56E/T59Q = 0.64 (6 of 6 replicates; controls 4 of 18)
* S28R/S33E/W56D = 0.50 (6 of 6 replicates; controls 3 of 18)
* Y31G/W56R = 2.16 (4 of 6 replicates; controls 0 of 18)
* S25I/S28L/V29N/V39I/W56N/S58N = -0.26 (6 of 6 replicates; controls 1 of 18)
* S25L/Q27G/V29N/W56N = -0.45 (6 of 6 replicates; controls 1 of 18)
* L30V/E61A/Y97C = nd (0 of 6 replicates; controls 1 of 18)
* S25C/W56D = 0.20 (6 of 6 replicates; controls 1 of 18)
* S25L/S26Q/V29G/W56S = -0.26 (6 of 6 replicates; controls 2 of 18)
* Y31M/K36I = 1.55 (6 of 6 replicates; controls 0 of 18)
* K24I/S25L/V29W/W56N/T59Q = -0.16 (6 of 6 replicates; controls 2 of 18)
* S25V/Q27I/V29Y/Y31L/W56E/S58M = -0.12 (6 of 6 replicates; controls 0 of 18)
* S25G/L30K/Y31F/W56D = -0.14 (6 of 6 replicates; controls 0 of 18)
* S25L/V29E/N35M/W56N/T59Q/E61M = -0.01 (6 of 6 replicates; controls 0 of 18)
* Q27S/S28V/R34F/W56N/E61M = 0.23 (6 of 6 replicates; controls 0 of 18)

Extract of 4 entries:

| changes | log10 Kd (nM), mean | detected | control signals |
|---|---|---|---|
| S25L/S26Q/V29Q/N35M/W56N | -0.09 | 6/6 | 0/18 |
| S25M/V29A/Y31M/K36G/W56N/T59K | -0.18 | 6/6 | 1/18 |
| Y31G/W56R | 2.16 | 4/6 | 0/18 |
| S25L/V29E/N35M/W56N/T59Q/E61M | -0.01 | 6/6 | 0/18 |

Values of this round are not directly comparable with the first-round values of the same sequences. Empty control strains, which show no peptide, gave a signal in 4% of pairings with all light chain designs; the median was 2.64 and 95% of these signals were weaker than 1.59. No background was subtracted. Also given: how often the same scFv was detected with the empty control strains. The parent sequence was in this pool as ten entries: three were never detected, three once, and four in most replicates, with averages from 0.34 to 2.37. The authors averaged sequences with at least three values out of six and counted those with two or fewer as poor binders.